In PubChem BioAssay AID540295 (The Scripps Research Institute Molecular Screening Center, 2011):
Only a part is listed here, and it is no random draw. Calls of active or inactive are those of the source.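 The calls were made as follows: active = inhibition above its plate's cutoff, the mean of tested wells on that plate plus 3 SD (cut at about 29% in these data); inactive = the rest.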

Sequences of proteins named here, by UniProt entry; tags and fusion partners are left off.
UniProt P32245, whole entry, looked up: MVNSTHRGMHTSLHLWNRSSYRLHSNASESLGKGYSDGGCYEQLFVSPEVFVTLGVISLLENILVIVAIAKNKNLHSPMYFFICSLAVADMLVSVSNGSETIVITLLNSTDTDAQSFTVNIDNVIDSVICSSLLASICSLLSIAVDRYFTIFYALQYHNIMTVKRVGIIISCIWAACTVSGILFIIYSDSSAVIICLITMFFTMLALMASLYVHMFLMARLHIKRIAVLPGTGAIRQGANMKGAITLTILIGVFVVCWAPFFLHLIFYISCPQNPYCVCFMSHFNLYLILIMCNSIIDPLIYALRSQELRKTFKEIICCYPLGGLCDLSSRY

These compounds were tested against Melanocortin receptor 4 (Homo sapiens) (UniProt P32245) (assay: MC4R antagonists of cAMP signaling, primary screen, cell-based, TR-FRET, antagonist arm of biased-ligand search (AID 540295;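 also: 0% = Melanotan II alone and 100% = Melanotan II plus saturating MCL0020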)). Details: MC4R-expressing cells, MTII-stimulated cAMP, LANCE TR-FRET; at 6.5 µM; stronger effect = higher value.

| Compound | inhibition |
| --- | --- |
| COC(=O)C1(C)COP(=O)(Nc2ccccc2)OC1 (configuration not stated) | inactive: -3.55% |
| O=[N+]([O-])c1cccc(NC2=NCC(CBr)S2)c1 (configuration not stated) | inactive: 2.59% |
| O=C(O)CNc1ccc([As](=O)(O)O)cc1 | inactive: 5.51% |
| CC(C)(C)C(=O)NC(Sc1ccncn1)C(Cl)(Cl)Cl (configuration not stated) | inactive: 4.04% |
| O=[N+]([O-])c1ncn(CCn2ncnc2[N+](=O)[O-])n1 | inactive: 4.07% |
| O=C(Nc1cc([As](=O)(O)O)ccc1O)c1ccccc1 | inactive: 8.88% |
| O=P1(N(CCCl)CCCl)OCCCS1 (configuration not stated) | inactive: 1.11% |
| CN(C)C(=O)OCCc1n(C)cc[n+]1C | inactive: 14.1% |
| CC(C)c1nc(Nc2ccccc2)n(P(=O)(N(C)C)N(C)C)n1 | inactive: 0.66% |
| CC(C)=N/N=C(\N)N[N+](=O)[O-] | inactive: 3.01% |
| CC1CCN(C(=O)Oc2c(Cl)cc(Cl)c3cccnc23)CC1 | inactive: -10.3% |
| c1cc(-c2nn[nH]n2)ccc1-c1nn[nH]n1 | inactive: -2.66% |
| C[N+]1=C2C=CC=CC=C2SC12C([N+](=O)[O-])=CC([N+](=O)[O-])=C[C-]2[N+](=O)[O-] (configuration not stated) | inactive: 2.77% |
| Nc1ccc([As](=O)(O)c2ccc(N)cc2)cc1 | inactive: 1.65% |
| CCN(/C(=N/P(=O)(N1CCOCC1)N1CCOCC1)N1CCOCC1)c1ccc(OC)cc1 | inactive: 0.49% |
| CC(=O)N1C2C3N(C(C)=O)C1C1N(C(C)=O)C(C(N1C(C)=O)N3C(C)=O)N2C(C)=O | inactive: -0.38% |
| O=[N+]([O-])c1cccc2n[nH]nc12 | inactive: 5.33% |
| O=[N+]([O-])c1cc([N+](=O)[O-])c(CCNc2ccccc2)c([N+](=O)[O-])c1 | inactive: 5.98% |
| CCc1nc2c(n1)c1c(non1O)c1c2no[n+]1[O-] | inactive: -44.4% |
| Cc1ccc(NP(=O)(Oc2ccccc2)Oc2ccccc2)nc1 | inactive: -0.2% |
| COc1ccc(C2=NCC(CBr)S2)cc1 (configuration not stated) | inactive: 0.49% |
| Nc1cc(N)c2nonc2c1[N+](=O)[O-] | inactive: 4.24% |
| CC(C)CC(=O)NC(Sc1ccc(Cl)cc1)C(Cl)(Cl)Cl (configuration not stated) | inactive: 5.65% |
| O=C(NC(Sc1ccncn1)C(Cl)(Cl)Cl)c1ccccc1 (configuration not stated) | inactive: 6.38% |
| Oc1ccccc1CNc1ccccn1 | inactive: 3.57% |
| Cc1ccc(OP(=O)(Nc2nccs2)Oc2ccc(C)cc2)cc1 | inactive: 4.2% |

| Compound | inhibition |
| --- | --- |
| COc1ccccc1OP(=O)(Nc1ccc(C)cn1)Oc1ccccc1OC | inactive: 3.85% |
| CN1CCCC(OC(=O)C(c2ccccc2)c2ccccc2)C1 (configuration not stated) | inactive: -6.05% |
| Clc1ccc(Cl)c(NC2=NCC(CBr)S2)c1 (configuration not stated) | inactive: 19.7% |
| NC(=O)c1cc([N+](=O)[O-])cc([N+](=O)[O-])c1N | inactive: 16.6% |
| Cc1ccc(N/C(=N/P(=O)(N2CCOCC2)N2CCOCC2)N2CCOCC2)cc1 | inactive: 5.58% |
| CN(C(=O)Cc1ccc(Cl)c(Cl)c1)[C@H]1CCCC[C@H]1N1CCCC1 | inactive: 5.39% |
| CCN(N=Nc1nonc1N)c1nonc1N | inactive: -1.18% |
| Nc1cccc2ccc([As](=O)(O)O)cc12 | inactive: 2.25% |
| CN(C(=O)Cc1ccc(Cl)c(Cl)c1)[C@H]1CCCC[C@@H]1N1CCCC1 | inactive: 9.98% |
| Cc1ccc(NP(=O)(Oc2ccccc2F)Oc2ccccc2F)nc1 | inactive: 16% |
| Cc1cc(SC(NC(=O)c2ccc(F)cc2)C(Cl)(Cl)Cl)ncn1 (configuration not stated) | inactive: 6.17% |
| CCOP(=O)(Nc1ccccc1)OCC | inactive: 7.85% |
| CCCC1OP(N)(=O)OCC1CC (configuration not stated) | inactive: 13.1% |
| CC(=O)Nc1ccc([As](=O)(O)O)cc1 | inactive: 20.5% |
| O=C(O)c1ccccc1[As](=O)(O)O | inactive: 0.43% |
| O=P(Nc1nc2ccc(Cl)cc2s1)(c1ccccc1)c1ccccc1 | inactive: -6.24% |
| CN(C)P(=O)(N(C)C)n1c(Nc2ccccc2)nnc1-c1ccccc1 | inactive: 7.36% |
| O=c1c2cc([N+](=O)[O-])ccc2[nH]c2c([N+](=O)[O-])cc([N+](=O)[O-])cc12 | inactive: 19% |
| CN(C)C(=O)Oc1noc2ccccc12 | inactive: 0.71% |
| CC(NC(=O)COC(=O)C(O)(c1ccccc1)c1ccccc1)c1ccccc1 (configuration not stated) | inactive: 13.1% |
| Cc1ccccc1OP(=O)(Nc1ccccn1)Oc1ccccc1C | inactive: 4.63% |
| Cc1ccc(OP(=O)(Nc2ccccn2)Oc2ccc(C)cc2)cc1 | inactive: 7.82% |
| CC(=O)NC(SC(=S)N(CC(C)C)CC(C)C)C(Cl)(Cl)Cl (configuration not stated) | inactive: 8.46% |
| COC(=O)c1cc2c(s1)N=C(c1ccccc1)N(C)P2(=O)N1CCOCC1 (configuration not stated) | inactive: 12.1% |
| CCC(=O)N1C2C3N(C(=O)CC)C1C1N(C(=O)CC)C(C(N1C(=O)CC)N3C(=O)CC)N2C(=O)CC | inactive: 11.8% |
| O=C(OC1CN2CCC1CC2)c1ccccc1 (configuration not stated) | inactive: 0.43% |

| Compound | inhibition |
| --- | --- |
| O=P1(N(CCCl)CCCl)OCCC2CCCCN21 (configuration not stated) | inactive: 1.75% |
| O=C(NC1CCS(=O)(=O)C1)NP(=S)(Oc1ccccc1)Oc1ccccc1 (configuration not stated) | inactive: -4.16% |
| CCNC(=S)/N=C(\N)N[N+](=O)[O-] | inactive: 10.8% |
| Cc1ccc(NP(=O)(Oc2cccc(C)c2)Oc2cccc(C)c2)nc1 | inactive: 1.65% |
| c1ccc(-c2nn[nH]n2)c(-c2nn[nH]n2)c1 | inactive: -4.35% |
| CC(=O)Nc1ccc(Oc2c([N+](=O)[O-])cc([N+](=O)[O-])cc2[N+](=O)[O-])cc1 | inactive: 11.7% |
| CC(=O)Nc1ccc([As](=O)(O)O)c(O)c1 | inactive: 0.76% |
| COC(=O)C1(C)COP(=O)(NCc2ccccc2)OC1 (configuration not stated) | inactive: 2.04% |
| CC(=O)c1ccc(N2CC2c2ccncc2)cc1 (configuration not stated) | inactive: 12.6% |
| N#C/C(=C\c1ccc(N(CCBr)CCBr)cc1)C(N)=O | inactive: -3.65% |
| C[C@H]1OP(=O)(Oc2ccccc2)C[C@@H]2O[C@@H]21 (some centres not stated) | inactive: 17.3% |
| C[C@@H]1C=CCP(=O)(Oc2ccccc2)O1 (some centres not stated) | inactive: -3.03% |
| Cc1ccccc1CN(C)C(=O)COC(=O)C(O)(c1ccccc1)c1ccccc1 | inactive: -2.89% |
| CCc1cc(O)c([N+](=O)[O-])c(C)c1[N+](=O)[O-] | inactive: 3.57% |
| CC(C)(C)C(=O)NC(Sc1ccccc1)C(Cl)(Cl)Cl (configuration not stated) | inactive: 2.95% |
| CCOc1ccc(C2=NCC(CBr)S2)cc1 (configuration not stated) | inactive: 2.38% |
| O=P1(Nc2nc3ccc(Cl)cc3s2)COc2ccccc2O1 (configuration not stated) | inactive: -0.05% |
| COc1ccc(C[C@H](C)NC[C@@H](O)c2ccc(O)c(NC=O)c2)cc1 | inactive: -3.74% |
| c1nnnn1CCn1cnnn1 | inactive: -0.03% |
| O=P(Nc1nccs1)(c1ccccc1)c1ccccc1 | inactive: 0.77% |
| CC(C)C(=O)NC(Sc1ccccc1)C(Cl)(Cl)Cl (configuration not stated) | inactive: 2.64% |
| C(Cc1nn[nH]n1)Cc1nn[nH]n1 | inactive: 1.25% |
| Nc1ccc([As](=O)(O)c2ccc([N+](=O)[O-])cc2)cc1 | inactive: 15.9% |
| O=C(OC1CN2CCC1CC2)c1cccc(Cl)c1 (configuration not stated) | inactive: 8.5% |
| O=[N+]([O-])c1ncn(CCn2cnc([N+](=O)[O-])n2)n1 | inactive: 2.94% |
| CC(=O)NC(SC(=S)N(C)C)C(Cl)(Cl)Cl (configuration not stated) | inactive: 8.67% |

| Compound | inhibition |
| --- | --- |
| O=[N+]([O-])c1ccc(O)c(/C=N/Nc2ccc([N+](=O)[O-])cc2[N+](=O)[O-])c1 | inactive: 11.6% |
| O=[As](O)(c1ccccc1)c1ccc(O)cc1 | inactive: 12.2% |
| C[C@H]1OP(=O)(Oc2ccccc2)[C@H](O)[C@H](O)[C@H]1N=[N+]=[N-] (some centres not stated) | inactive: 1.53% |
| O=P(Nc1nc2ccccc2s1)(c1ccccc1)c1ccccc1 | inactive: 9.91% |
| COc1ccc(N)c([N+](=O)[O-])c1[N+](=O)[O-] | inactive: -0.75% |
| CN(C)C1(CNC(=O)c2ccc(Cl)c(S(N)(=O)=O)c2)CCCCC1 | inactive: 0.36% |
| O=P(Nc1ccccn1)(c1ccc(Br)cc1)c1ccc(Br)cc1 | inactive: 24.3% |
| O=[As](O)(c1cccs1)c1cccs1 | inactive: 1.61% |
| Cc1ccc(OCC(=O)OC2CN3CCC2CC3)cc1 (configuration not stated) | inactive: 8.09% |
| NS(=O)(=O)c1cccc(NC(=O)COC(=O)C(O)(c2ccccc2)c2ccccc2)c1 | inactive: 6.69% |
| O=P1(Nc2ccc(Br)cn2)COc2ccccc2OC1 | inactive: 0.14% |
| Nc1cccc([As](=O)(O)c2ccccc2)c1 | inactive: -0.62% |
| O=P1(Nc2ncccn2)COc2ccccc2OC1 | inactive: 9.27% |
| CCCC1OP(=O)(Nc2ccccc2)OCC1CC (configuration not stated) | inactive: 3.57% |
| O=C(/C=C/c1ccccc1)OC1CN2CCC1CC2 (configuration not stated) | inactive: -2.77% |
| CN(C)C1(CNC(=O)c2ccc(S(C)(=O)=O)cc2)CCCCC1 | inactive: 11.8% |
| CC1CCC(C(C)C)C(OP(=O)(Nc2ccccn2)c2ccccc2)C1 (configuration not stated) | inactive: 3.57% |
| Cc1nn(-c2ccccc2)c2c1P(=O)(N1CCOCC1)N(C)C(c1ccccc1)=N2 (configuration not stated) | inactive: 2.69% |
| CC1(CBr)Cn2c(nc3ccccc3c2=O)S1 (configuration not stated) | inactive: 6.79% |
| CN(C(=O)Cc1ccc(Cl)c(Cl)c1)[C@@H]1CCCC[C@H]1N1CCCC1 | inactive: 12.2% |
| CC(C)/C=N\N=C(\N)N[N+](=O)[O-] | inactive: -7.6% |
| COc1ccccc1CNC(=O)COC(=O)C(O)(c1ccccc1)c1ccccc1 | inactive: 7.15% |
| CC(C)(C)C(=O)NC(Sc1ncccn1)C(Cl)(Cl)Cl (configuration not stated) | inactive: 11.6% |
| Clc1n[nH]nc1-c1nn[nH][15n]1 | inactive: 1.83% |
